Assay results reported in patent publication US20040092531A1.

System: neuropathic pain (allodynia against cold) in male Sprague-Dawley rats
Assay: Bennett test on rats (cold allodynia on 4° C. metal plate)
Conditions: intravenous, FIG. 1

CNC1(c2ccccc2Cl)CCCCC1=O (centres unmarked)
analgesic effect 1440 minutes, i.e. 24 hours after administration (ketamine 4.64 mg/kg and/or fentanyl 0.01 mg/kg): no longer exhibit any analgesic effect
analgesic effect about 15 minutes after administration (ketamine 4.64 mg/kg, fentanyl 0.01 mg/kg): good analgesic effect
